[1] = female, Sprague-Dawley, rat, in vivo, 30 mg/kg/day, 4 weeks

## CNC(=O)c1ccccc1Nc1nc(Nc2ccc3c(c2OC)CCC[C@H](N2CCN(CCO)CC2)C3)ncc1Cl [CEP-37440, 2-[[5-chloro-2-[[(6S)-6-[4-(2-hydroxyethyl)piperazin-1-yl]-1-methoxy-6,7,8,9-tetrahydro-5H-benzo[7]annulen-2-yl]amino]pyrimidin-4-yl]amino]-N-methyl-benzamide]
1, 3, 10, 30 mg/kg/day, dosing phase
  unscheduled deaths: None of the unscheduled deaths were attributed to the drug
female, Sprague-Dawley, rat, in vivo, 30 mg/kg/day
  incidence of chronic inflammation and/or fibrosis of serosal surface of heart and lung: 2/5
[1]
  incidence of chronic inflammation and/or fibrosis of heart and lung surface: 5/10
  incidence of chronic inflammation in the thoracic cavity, total at scheduled sacrifices: 7/15
  incidence of chronic to chronic-active inflammation in connective tissue surrounding the thymus: 4/10

Reference: patent US10632119B2, “Fused bicyclic 2,4-diaminopyrimidine derivative as a dual ALK and FAK inhibitor” (priority 2012, dated 2020)
